In patent US20220251214A1:

How the values were obtained:
[1] = molecular target: human GITR on the cell surface (JD/GITR cells; GITR-expressing T cells) (human) (UniProt Q9Y5U5); assay: cell-based or functional assay
[2] = molecular target: recombinant human EGFR on the surface of NS0/EGFR cells (EGFR-FLAG-GPI) (human) (UniProt P00533); assay: cell-based or functional assay

- average relative luciferase unit (RLU) in JD/GITR cells, 1 µg/ml antibody, with NS0/EGFR cells [1]: 47500 RLU
- average relative luciferase unit (RLU) in JD/GITR cells, 1 µg/ml antibody, with NS0 cells [1]: 17500 RLU
- average relative luciferase unit (RLU) in JD/GITR cells, 1 µg/ml antibody, with NS0/EGFR cells [2]: 47500 RLU
Substance: BS827 (bispecific antibody)
